Literature values as cited in patent US9241935B2.
Only a part of the results on these compounds is given; other tests are left out.

Conditions: oral administration

Structure (SMILES): CCC(=O)N(c1ccccc1)C1CCN(CCc2ccccc2)CC1
- Fraction of orally administered fentanyl not absorbed (first pass effect): ≥ 50%
